# Ab-14 heavy chain CDR variants: yeast mating affinities

Source: Li et al. 2023 (doi:10.1038/s41467-023-39022-2), MIT Lincoln Laboratory and A-Alpha Bio; data file from the FLAb repository.

Target: peptide PDVDLGDISGINAS, taken from heptad repeat 2 (HR2) of SARS-CoV-2 spike.

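The starting antibody came from a phage panning campaign against this peptide. Designed CDR sequences, proposed from the first random library and measured here. Several design methods are mixed in this list. AlphaSeq pools MATa yeast showing the antibodies with MATalpha yeast showing the peptide. Pairs that bind mate more often; barcode pairs of the diploids are counted by sequencing. A regression on co-assayed BCL2-family reference pairs converts the normalised counts of each replicate to an apparent Kd. Mating was done six times.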

Parent scFv Ab-14: VH joined to VL by a 15-residue (Gly4Ser)3 linker. Changes lie in the heavy chain CDRs alone.
VH: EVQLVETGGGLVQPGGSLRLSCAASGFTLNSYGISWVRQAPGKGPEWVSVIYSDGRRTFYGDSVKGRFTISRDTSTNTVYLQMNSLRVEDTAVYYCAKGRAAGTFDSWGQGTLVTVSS
VL: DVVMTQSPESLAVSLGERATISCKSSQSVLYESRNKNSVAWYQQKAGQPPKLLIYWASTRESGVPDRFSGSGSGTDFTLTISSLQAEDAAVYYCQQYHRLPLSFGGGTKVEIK

Variants are written as CDR1, CDR2 and CDR3 of the heavy chain (limits as in the source). Parent: GFTLNSYGIS, VIYSDGRRTFYGDSVK, GRAAGTFDS.
The Kd shown is the geometric mean over detected replicates; a lower Kd is a better binder.
Where no diploid with the target was found in any replicate, the entry reads "nd": below detection, most likely a poor binder, though not proof of it.

CDR-H1,CDR-H2,CDR-H3,Kd (apparent),seen in
GFDLNEYGIS,VIYADGMRTAYADSVK,GESAGTFDV,640 pM,6 of 6
YFSLNSYGIS,VIYSDGRRTFYGDSVK,GRNAGTFDS,nd,0 of 6
GFDLNEYGIS,VIYADGRRTFYSDSVK,GEVAGTFVM,390 pM,6 of 6
GFTLNSYGIS,VIYSDGRRTAYGDSVK,GSAAGTFDS,4.3 nM,6 of 6
GFTLNSYGIS,VIYSDGRRTFYKDSVK,GQEAGTFDT,nd,0 of 6
GFDLNEYGIS,VIYADGRRTFYADSVK,GNAAGTFNV,160 pM,6 of 6
GFALNSYSIS,VIYSDGQRTFYGDSVK,GYCAGTFDS,nd,0 of 6
GFSLNQYGIS,VIYSDGRRTFYSDSVK,GKAAGTFDS,770 pM,6 of 6
GFDLNEYGIS,VIYADGMRTAYADNVK,GTNAGTFDV,420 pM,6 of 6
GFSLNEYGIS,VIYSDGRRTFYGDSVK,GRIAGTFIS,nd,0 of 6
GFDLDEYGIS,VIYADGRRTYYADSVK,GNNAGTFDV,1.2 nM,6 of 6
GFTLNSYGIS,VIYSDGERTFYADSVK,GRAAATFDS,nd,0 of 6
GQSLDDYGIS,VIYADGQRKYAVDEVK,GEVAGTFDI,2.7 nM,6 of 6
GFDLEDYGIS,VIYADGRRTFYADSVK,GNVAGTFDL,82 pM,6 of 6
GFDLNEYGIS,VIYADGQRTAYADDVK,GENAGTFDQ,940 pM,6 of 6
GFDLNEYGIS,VIYADGRRTFYADSVK,GQTAGTFDQ,360 pM,6 of 6
GFDLNEYGIS,VIYADGKRTFYVDSVK,GETAGTFDS,740 pM,6 of 6
GFSLNSYGIS,VIYSDGRRTFYGDSVR,GSAAGTFDM,13 nM,6 of 6
GFELNSYGIS,VIYSDGRRTFYADMVK,GKTAGTFDS,22 nM,6 of 6
GFDLNSYGIS,VIYSDGRRTFYGDSVK,GNEAGTFDS,1.0 nM,6 of 6
GFNFDEYGIS,VIYADGMRRQYVDDVK,GSHSDVFNM,2.5 nM,6 of 6
GFDLNSYGIP,VIPSDGRTTFYGDSHK,GRAAGWFAS,nd,0 of 6
GFTLNSYGIS,VIYADGRRTAYGDSVK,GRLAGTFDS,760 pM,6 of 6
GFTLNSYGIS,VIYSDGRRTFYADSVK,GQLAGTFDT,2.4 nM,6 of 6
GFTLNSYGIS,VIYSDGYRTFYGDDVK,GRAAATFRE,nd,0 of 6
GFDLNEYGIS,VIYADGVRTAYVDSVK,GEVAGTFDL,14 nM,6 of 6
WFNLNSYGIS,VIYSDGRRTFYADSVK,GNEAGTFDS,18 nM,5 of 6

Second part, the sequence after the result:

Kd (apparent),seen in,CDR-H1,CDR-H2,CDR-H3
3.4 nM,6 of 6,GFTLNSYGIS,VIYADGRRTFYGDSVK,GTAAGTFKS
2.8 nM,6 of 6,GFSLKSYGIS,VIYADGRRTFYGDSVK,GKAAGTFDS
nd,0 of 6,GFTLNSYGIS,VIYSDGRRTFYGDSVK,QRAAGTFDS
160 pM,6 of 6,GFDLNEYGIS,VIYADGRRTFYTDSVK,GQLAGTFDE
nd,0 of 6,GFTLNDYGIS,VIYSDGRRTVYGDSVK,GRAALTFIS
46 nM,4 of 6,GFTLDSYGIS,VIYSDGRRTFYGDSVK,GHAAGTFDS
1.9 nM,6 of 6,GFTLNEYGIS,VIYSDGRRTFYCDDVK,GRTAGTFDS
120 pM,3 of 6,GFLLNDYGIS,VIYSDGRRTFYKDSVK,GRAAGTFDS
81 pM,6 of 6,GFDLDEYGIS,VIYADGKRTAYADSVK,GGVAGTFDV
290 pM,6 of 6,GFDLNEYGIS,VIYADGRRTFYVDSVK,GGNAGTFDS
nd,0 of 6,GFTLNSYGIQ,VIYSDGLRTFYGDSVK,RRQAGTYDS
nd,0 of 6,GFTLNSYGIS,VIYSDGRRTFYIDSVK,GEASVTFDS
3.5 µM,2 of 6,GFQLNSYGIS,VIYSDGRRTFYSDSVK,GRAGGTFDS
1.1 nM,6 of 6,GFDIDEYGVS,VIYADGFREAYAESVK,GLQQFGFTV
89 pM,2 of 6,GFDLEDYGIS,VIYADGQRTAYSDSVK,GNVAGTFDV
5.3 nM,6 of 6,GFTLNEYGIS,VIYSDGRRTFYGDSVK,GRLAGTFDL
1.3 nM,6 of 6,GFDLNEYGIS,VIYADGVRTAYIDSVK,GENAGTFDM
220 pM,6 of 6,GFDLDEYGIS,VIYADGMRTAYVDSVK,GNNAGTFDV
930 pM,6 of 6,GFNLNEYGIS,VIYADGRRTFYTDSVK,GEFAGTFDL
nd,0 of 6,GFDVNEYGIS,VIYADGVRRTYADAVK,GNLSGVVDV
6.7 nM,6 of 6,GFSLNSYGIS,VIYSDGRRTFYADSVK,GRTAGTFDN
nd,0 of 6,GFDLDEYGIS,VIYADGMRTFYADSVK,GQNAGTFDV
27 nM,1 of 6,GFTVKSYGIS,VIYSDGRRTFYGDSVK,GRTAGTFDS
nd,0 of 6,GFDLNSYGSS,VIYSDGRRTFYGDSVK,GGQAGPFDL
290 pM,6 of 6,GFDLNEYGIS,VIYADGLRTAYADDVK,GTNAGTFDV
930 pM,6 of 6,GFDLNSYGIS,VIYSDGRRTFYGDSVK,GTAAGTFDL
1.7 nM,6 of 6,GFDLNSYGIS,VIYSDGRRTFYTDSVK,GRTAGTFDS
nd,0 of 6,GFTLNSYGIS,VIYSDGRRTFYGDSVK,GRAMSTFDS

The 8 strongest on average among those seen in every replicate, once more:

CDR-H1,CDR-H2,CDR-H3,Kd (apparent),seen in
GFDLDEYGIS,VIYADGKRTAYADSVK,GGVAGTFDV,81 pM,6 of 6
GFDLEDYGIS,VIYADGRRTFYADSVK,GNVAGTFDL,82 pM,6 of 6
GFDLNEYGIS,VIYADGRRTFYTDSVK,GQLAGTFDE,160 pM,6 of 6
GFDLNEYGIS,VIYADGRRTFYADSVK,GNAAGTFNV,160 pM,6 of 6
GFDLDEYGIS,VIYADGMRTAYVDSVK,GNNAGTFDV,220 pM,6 of 6
GFDLNEYGIS,VIYADGRRTFYVDSVK,GGNAGTFDS,290 pM,6 of 6
GFDLNEYGIS,VIYADGLRTAYADDVK,GTNAGTFDV,290 pM,6 of 6
GFDLNEYGIS,VIYADGRRTFYADSVK,GQTAGTFDQ,360 pM,6 of 6

In the paper, a design with two or fewer of six values counts as a poor binder.
A sequence measured in both rounds can read differently, since the two assays cover different ranges.
Background: pairings of all heavy chain designs with three empty control strains gave a value in 1% of cases (median 120 nM, 5th percentile 7.0 nM). Values in that range, when seen in few replicates, are hard to tell from nonspecific mating.